# Ab-14 light chain CDR variants: yeast mating affinities

Data: MIT Lincoln Laboratory AlphaSeq set, Engelhart et al. 2022, doi:10.1038/s41597-022-01779-4, as distributed in FLAb.

All variants were tested on one target, the spike HR2 peptide PDVDLGDISGINAS (SARS-CoV-2).

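The starting antibody came from a phage panning campaign against this peptide. In library AAYL50, one, two or three CDR residues were substituted; doubles and triples were drawn at random. Affinity was read by AlphaSeq, a pooled yeast mating assay with surface-displayed partners. Mating (16 h, 30 °C) was followed by selection of diploids and sequencing of their barcodes. The ratio of observed to expected reads was calibrated, replicate by replicate, on BCL2-family standards whose Kd was known from biolayer interferometry. There are three technical replicates.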

Parent: Ab-14, a human scFv built as VH, the linker GGGGSGGGGSGGGGS, VL. Only the CDRs of the light chain vary.
VH: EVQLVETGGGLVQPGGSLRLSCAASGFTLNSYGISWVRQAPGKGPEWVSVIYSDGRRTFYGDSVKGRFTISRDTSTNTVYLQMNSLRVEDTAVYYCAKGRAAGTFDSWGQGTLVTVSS
VL: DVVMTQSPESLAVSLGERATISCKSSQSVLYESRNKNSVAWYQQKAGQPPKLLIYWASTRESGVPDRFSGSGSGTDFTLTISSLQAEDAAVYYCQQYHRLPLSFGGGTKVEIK

Substitutions are numbered in sequence along the VL above, starting at 1 (not Kabat). Scale: log10 of Kd in nM, estimated from mating counts; low values are strong binders. A mean of the replicates is given; it leaves out those without a signal. "not detected" means that the variant was in the library but no mating with the target was seen in any replicate; the authors take this as a sign of poor binding, and no number exists. Nonspecific signal, from three strains lacking the peptide, appeared in 18% of pairings of library AAYL50, centred on 4.19 (5% of these signals below 2.99); values are not corrected for it. Also given: how often the same scFv was detected with the empty control strains.

| changes | log10 Kd (nM), mean | detected | control signals |
|---|---|---|---|
| S33F/N35E/S38I | 4.13 | 2 of 3 | 1 of 9 |
| K24W/S25K/S33H | not detected | 0 of 3 | 0 of 9 |
| S25V/L30Y/S103R | 4.90 | 2 of 3 | 0 of 9 |
| S38I/Y97K | not detected | 0 of 3 | 2 of 9 |
| N37I/W56F/L100D | 3.60 | 2 of 3 | 4 of 9 |
| S25N/S38A/S62D | 0.52 | 3 of 3 | 1 of 9 |
| L30I/A57G/S62M | 0.57 | 3 of 3 | 2 of 9 |
| K24A/Y31N/A40F | 4.33 | 1 of 3 | 4 of 9 |
| S28M/W56M | not detected | 0 of 3 | 1 of 9 |
| S25V/W56V/P101D | not detected | 0 of 3 | 3 of 9 |
| A57Y/Q95G/P101N | not detected | 0 of 3 | 1 of 9 |
| S25G/W56M/S62F | 0.55 | 3 of 3 | 0 of 9 |
| V39E/P101M | not detected | 0 of 3 | 4 of 9 |
| P101E/L102V | 0.25 | 3 of 3 | 1 of 9 |
| E32G/N37L | 2.44 | 3 of 3 | 1 of 9 |
| T59L/H98K/L100N | not detected | 0 of 3 | 1 of 9 |
| E32Q/V39Y/A40K | 3.50 | 2 of 3 | 0 of 9 |
| S33R/V39N/Y97S | not detected | 0 of 3 | 0 of 9 |
| S26M/S62P | 0.95 | 3 of 3 | 2 of 9 |
| N37T/S58K | not detected | 0 of 3 | 2 of 9 |
| K24F/L30A/S38K | 3.01 | 2 of 3 | 3 of 9 |
| V29I/L30P/N35D | 0.62 | 3 of 3 | 3 of 9 |
| K24W/L30E/L100N | not detected | 0 of 3 | 1 of 9 |
| K24C/S28H/V39M | 2.41 | 1 of 3 | 0 of 9 |
| S26N/E32A/P101D | 2.96 | 3 of 3 | 3 of 9 |
| S26H/V39T/S62C | not detected | 0 of 3 | 0 of 9 |
| K36N/N37R/S38I | 2.36 | 1 of 3 | 0 of 9 |
| S25L/N35R/W56L | 0.79 | 3 of 3 | 0 of 9 |
| V39R/E61K/Q96T | not detected | 0 of 3 | 3 of 9 |
| K24Y/Y31R/A40N | not detected | 0 of 3 | 0 of 9 |
| S28R/E32R/Y97Q | 5.83 | 1 of 3 | 2 of 9 |
| N35S/A57T/S58M | 1.30 | 3 of 3 | 2 of 9 |
| V39L/T59M/E61D | not detected | 0 of 3 | 0 of 9 |
| S25C/Q27D/R60H | not detected | 0 of 3 | 0 of 9 |
| N37G/A40R/Y97V | not detected | 0 of 3 | 1 of 9 |
| V29W/R34T/N35H | 4.24 | 1 of 3 | 2 of 9 |
| K24R/W56E/R60C | 0.49 | 3 of 3 | 1 of 9 |
| Q27M/V39Y/L100N | 4.59 | 1 of 3 | 3 of 9 |
| Q27E/E61Q/S103F | 1.35 | 3 of 3 | 3 of 9 |
| K24N/Y31H/S62K | 1.59 | 3 of 3 | 2 of 9 |
| Q27S/K36N/Q96K | 3.17 | 3 of 3 | 0 of 9 |
| K36M/Q95V/H98V | 0.89 | 3 of 3 | 2 of 9 |
| W56G/A57S | -0.19 | 3 of 3 | 3 of 9 |
| N35G/A57W/S58M | 5.66 | 1 of 3 | 7 of 9 |
| E61M/P101C/S103R | not detected | 0 of 3 | 2 of 9 |

A selection of 8 entries from above:

| changes | log10 Kd (nM), mean | detected | control signals |
|---|---|---|---|
| Q27M/V39Y/L100N | 4.59 | 1 of 3 | 3 of 9 |
| K24A/Y31N/A40F | 4.33 | 1 of 3 | 4 of 9 |
| S25G/W56M/S62F | 0.55 | 3 of 3 | 0 of 9 |
| S28R/E32R/Y97Q | 5.83 | 1 of 3 | 2 of 9 |
| S25V/L30Y/S103R | 4.90 | 2 of 3 | 0 of 9 |
| T59L/H98K/L100N | not detected | 0 of 3 | 1 of 9 |
| N35G/A57W/S58M | 5.66 | 1 of 3 | 7 of 9 |
| V39E/P101M | not detected | 0 of 3 | 4 of 9 |